These are literature values, as cited in EP4154876B1, “CBX7 INHIBITOR FOR USE IN THE TREATMENT AND/OR PREVENTION OF A BLOOD VESSEL DISORDER” (Universität Potsdam, priority 2021, dated 2023).

Each structure is given as a SMILES string.

The data set concerns the target T1, chromodomains of CBX4 (Homo sapiens, UniProt O00257).
T1 sequence (O00257 11-69 limits assumed): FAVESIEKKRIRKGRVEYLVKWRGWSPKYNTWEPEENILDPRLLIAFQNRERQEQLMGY
The note with it: CBX4 chromodomain; cited from earlier work.

Take `CCN(CC)CCCC[C@H](NC(=O)[C@H](CC(C)C)NC(=O)[C@H](C)NC(=O)[C@H](Cc1ccccc1)NC(=O)c1ccc(C(C)(C)C)cc1)C(=O)N[C@@H](CO)C(=O)OC` [UNC3866]: the Kd – broadly, the constant that tells how readily two partners part at equilibrium – is about 0.1 µM.
